Laboratory results: paper PMC11311990, “Identification of Ribonuclease Inhibitors for the Control of Pathogenic Bacteria” (International Journal of Molecular Sciences, 2024)

By UniProt entry, the sequences of proteins in these tests, tags left out. Residues count along the entry.
UniProt P21499, 2-813: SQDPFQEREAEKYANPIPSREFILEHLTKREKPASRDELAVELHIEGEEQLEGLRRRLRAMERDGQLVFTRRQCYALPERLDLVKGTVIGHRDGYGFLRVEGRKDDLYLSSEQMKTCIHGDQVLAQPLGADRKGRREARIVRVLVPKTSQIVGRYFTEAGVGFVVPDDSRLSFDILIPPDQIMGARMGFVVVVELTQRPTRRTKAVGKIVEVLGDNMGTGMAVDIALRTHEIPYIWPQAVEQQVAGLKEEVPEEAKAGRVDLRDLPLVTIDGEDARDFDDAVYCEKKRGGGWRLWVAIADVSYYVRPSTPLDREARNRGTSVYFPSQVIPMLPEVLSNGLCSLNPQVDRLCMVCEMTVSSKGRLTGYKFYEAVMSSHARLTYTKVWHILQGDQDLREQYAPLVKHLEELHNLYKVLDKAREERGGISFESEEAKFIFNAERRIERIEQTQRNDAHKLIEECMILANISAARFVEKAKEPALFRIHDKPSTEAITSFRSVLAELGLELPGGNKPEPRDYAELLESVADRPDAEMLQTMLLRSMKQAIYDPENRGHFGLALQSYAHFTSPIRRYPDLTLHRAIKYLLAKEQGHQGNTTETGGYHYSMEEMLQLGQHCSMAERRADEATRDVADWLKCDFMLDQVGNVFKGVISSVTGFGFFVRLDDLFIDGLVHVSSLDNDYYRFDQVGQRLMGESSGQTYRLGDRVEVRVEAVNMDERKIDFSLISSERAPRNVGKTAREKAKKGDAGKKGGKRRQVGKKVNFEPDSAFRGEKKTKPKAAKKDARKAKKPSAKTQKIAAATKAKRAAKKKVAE

Target: T1, RNase R (Escherichia coli, UniProt P21499)
T1 construct: gene rnr; full-length recombinant, N-terminal His tag (pET15b derivative), expressed in E. coli BL21(DE3), IMAC purified
Type: biochemical
Settings: 10 mM compound, 10 nM enzyme, 10 nM poly(A), 1 mM MgCl2, 100 mM KCl, pH 8, 37 °C, DMSO

SMILES	gel exoribonuclease assay, 5'-32P 35-nt poly(A)
CC(C)(C)c1ccc(NC(=O)Nc2cccc(S(N)(=O)=O)c2)cc1 [HTS05225, 3-({[4-(tert-butyl)anilino]carbonyl}amino)benzenesulfonamide]	HTS05225 and HTS08348, besides inhibiting RNase II activity, were found to inhibit RNase R
CCc1ccc(C(=O)Nc2ccc(S(N)(=O)=O)cc2)cc1 [HTS08348, N-[4-(aminosulfonyl)phenyl]-4-ethylbenzamide]	HTS05225 and HTS08348, besides inhibiting RNase II activity, were found to inhibit RNase R
